Results: ChEMBL document CHEMBL1148385, “Synthesis and opioid activity of side-chain-to-side-chain cyclic dynorphin A-(1-11) amide analogues cyclized between positions 2 and 5. 1. Substitutions in position 3” (J Med Chem, 2004)

How the values were obtained:
Type in all cases: protein assay
[1] = tested on: opioid receptors kappa/mu (Rattus norvegicus), delta (Mus musculus); assay: Compound was evaluated for opioid receptor selectivity, expressed as Ki ratio (kappa/mu/delta); 1/3.6/645
[2] = tested on: opioid receptors kappa/mu (Rattus norvegicus), delta (Mus musculus); assay: Compound was evaluated for opioid receptor selectivity, expressed as Ki ratio (kappa/mu/delta); 1/1.6/5320
[3] = tested on: opioid receptors kappa/mu (Rattus norvegicus), delta (Mus musculus); assay: Compound was evaluated for opioid receptor selectivity, expressed as Ki ratio (kappa/mu/delta); 7.2/1/53
[4] = tested on: opioid receptors kappa/mu (Rattus norvegicus), delta (Mus musculus); assay: Compound was evaluated for opioid receptor selectivity, expressed as Ki ratio (kappa/mu/delta); 1/3.2/422
[5] = tested on: opioid receptors kappa/mu (Rattus norvegicus), delta (Mus musculus); assay: Compound was evaluated for opioid receptor selectivity, expressed as Ki ratio (kappa/mu/delta); 1/2.5/692
[6] = tested on: opioid receptors kappa/mu (Rattus norvegicus), delta (Mus musculus); assay: Compound was evaluated for opioid receptor selectivity, expressed as Ki ratio (kappa/mu/delta); 1/2.3/64
[7] = tested on: opioid receptors kappa/mu (Rattus norvegicus), delta (Mus musculus); assay: Compound was evaluated for opioid receptor selectivity, expressed as Ki ratio (kappa/mu/delta); 1/18/662
[8] = tested on: opioid receptors kappa/mu (Rattus norvegicus), delta (Mus musculus); assay: Compound was evaluated for opioid receptor selectivity, expressed as Ki ratio (kappa/mu/delta); 1.5/1/228
[9] = tested on: opioid receptors kappa/mu (Rattus norvegicus), delta (Mus musculus); assay: Compound was evaluated for opioid receptor selectivity, expressed as Ki ratio (kappa/mu/delta); 1/27/108
[10] = tested on: opioid receptors kappa/mu (Rattus norvegicus), delta (Mus musculus); assay: Compound was evaluated for opioid receptor selectivity, expressed as Ki ratio (kappa/mu/delta); 1/14/>1000
[11] = tested on: opioid receptors kappa/mu (Rattus norvegicus), delta (Mus musculus); assay: Compound was evaluated for opioid receptor selectivity, expressed as Ki ratio (kappa/mu/delta); 1/8.5/199
[12] = tested on: opioid receptors kappa/mu (Rattus norvegicus), delta (Mus musculus); assay: Compound was evaluated for opioid receptor selectivity, expressed as Ki ratio (kappa/mu/delta); 1/2.3/28

CC[C@H](C)[C@H](NC(=O)[C@H](CCCN=C(N)N)NC(=O)[C@H](CCCN=C(N)N)NC(=O)[C@H](CN)NC(=O)[C@H](Cc1ccccc1)NC(=O)[C@@H](Cc1c[nH]c2ccccc12)NC(=O)[C@@H](CC(=O)O)NC(=O)[C@@H](N)Cc1ccc(O)cc1)C(=O)N[C@@H](CCCN=C(N)N)C(=O)N1CCC[C@H]1C(=O)N[C@@H](CCCCN)C(N)=O
Ki ratio [1]: kappa/mu/delta

CC[C@H](C)[C@H](NC(=O)[C@H](CCCN=C(N)N)NC(=O)[C@H](CCCN=C(N)N)NC(=O)[C@H]1CNC(=O)C[C@@H](NC(=O)[C@@H](N)Cc2ccc(O)cc2)C(=O)N[C@@H](Cc2c[nH]c3ccccc23)C(=O)N[C@H](Cc2ccccc2)C(=O)N1)C(=O)N[C@@H](CCCN=C(N)N)C(=O)N1CCC[C@H]1C(=O)N[C@@H](CCCCN)C(N)=O
Ki ratio [2]: kappa/mu/delta

CC[C@H](C)[C@H](NC(=O)[C@H](CCCN=C(N)N)NC(=O)[C@H](CCCN=C(N)N)NC(=O)[C@H](CN)NC(=O)[C@H](Cc1ccccc1)NC(=O)CNC(=O)[C@@H](CC(=O)O)NC(=O)[C@@H](N)Cc1ccc(O)cc1)C(=O)N[C@@H](CCCN=C(N)N)C(=O)N1CCC[C@H]1C(=O)N[C@@H](CCCCN)C(N)=O
Ki ratio [3]: kappa/mu/delta

CC[C@H](C)[C@H](NC(=O)[C@H](CCCN=C(N)N)NC(=O)[C@H](CCCN=C(N)N)NC(=O)[C@H]1CNC(=O)C[C@@H](NC(=O)[C@@H](N)Cc2ccc(O)cc2)C(=O)N[C@H](Cc2c[nH]c3ccccc23)C(=O)N[C@H](Cc2ccccc2)C(=O)N1)C(=O)N[C@@H](CCCN=C(N)N)C(=O)N1CCC[C@H]1C(=O)N[C@@H](CCCCN)C(N)=O
Ki ratio [4]: kappa/mu/delta

CC[C@H](C)[C@H](NC(=O)[C@H](CCCN=C(N)N)NC(=O)[C@H](CCCN=C(N)N)NC(=O)[C@H](CN)NC(=O)[C@H](Cc1ccccc1)NC(=O)[C@H](Cc1c[nH]c2ccccc12)NC(=O)[C@@H](CC(=O)O)NC(=O)[C@@H](N)Cc1ccc(O)cc1)C(=O)N[C@@H](CCCN=C(N)N)C(=O)N1CCC[C@H]1C(=O)N[C@@H](CCCCN)C(N)=O
Ki ratio [5]: kappa/mu/delta

CC[C@H](C)[C@H](NC(=O)[C@H](CCCN=C(N)N)NC(=O)[C@H](CCCN=C(N)N)NC(=O)[C@H](CN)NC(=O)[C@H](Cc1ccccc1)NC(=O)[C@H](C)NC(=O)[C@@H](CC(=O)O)NC(=O)[C@@H](N)Cc1ccc(O)cc1)C(=O)N[C@@H](CCCN=C(N)N)C(=O)N1CCC[C@H]1C(=O)N[C@@H](CCCCN)C(N)=O
Ki ratio [6]: kappa/mu/delta

CC[C@H](C)[C@H](NC(=O)[C@H](CCCN=C(N)N)NC(=O)[C@H](CCCN=C(N)N)NC(=O)[C@H]1CNC(=O)C[C@@H](NC(=O)[C@@H](N)Cc2ccc(O)cc2)C(=O)N[C@H](C)C(=O)N[C@H](Cc2ccccc2)C(=O)N1)C(=O)N[C@@H](CCCN=C(N)N)C(=O)N1CCC[C@H]1C(=O)N[C@@H](CCCCN)C(N)=O
Ki ratio [7]: kappa/mu/delta

CC[C@H](C)[C@H](NC(=O)[C@H](CCCN=C(N)N)NC(=O)[C@H](CCCN=C(N)N)NC(=O)[C@H](CN)NC(=O)[C@H](Cc1ccccc1)NC(=O)[C@@H](C)NC(=O)[C@@H](CC(=O)O)NC(=O)[C@@H](N)Cc1ccc(O)cc1)C(=O)N[C@@H](CCCN=C(N)N)C(=O)N1CCC[C@H]1C(=O)N[C@@H](CCCCN)C(N)=O
Ki ratio [8]: mu/kappa/delta

CC[C@H](C)[C@H](NC(=O)[C@H](CCCN=C(N)N)NC(=O)[C@H](CCCN=C(N)N)NC(=O)[C@H](CC(C)C)NC(=O)[C@H](Cc1ccccc1)NC(=O)[C@H](Cc1c[nH]c2ccccc12)NC(=O)CNC(=O)[C@@H](N)Cc1ccc(O)cc1)C(=O)N[C@@H](CCCN=C(N)N)C(=O)N1CCC[C@H]1C(=O)N[C@@H](CCCCN)C(N)=O
Ki ratio [9]: kappa/mu/delta

CC[C@H](C)[C@H](NC(=O)[C@H](CCCN=C(N)N)NC(=O)[C@H](CCCN=C(N)N)NC(=O)[C@H]1CNC(=O)C[C@@H](NC(=O)[C@@H](N)Cc2ccc(O)cc2)C(=O)N2CCC[C@H]2C(=O)N[C@H](Cc2ccccc2)C(=O)N1)C(=O)N[C@@H](CCCN=C(N)N)C(=O)N1CCC[C@H]1C(=O)N[C@@H](CCCCN)C(N)=O
Ki ratio [10]: kappa/mu/delta

CC[C@H](C)[C@H](NC(=O)[C@H](CCCN=C(N)N)NC(=O)[C@H](CCCN=C(N)N)NC(=O)[C@H](CC(C)C)NC(=O)[C@H](Cc1ccccc1)NC(=O)[C@@H](Cc1c[nH]c2ccccc12)NC(=O)CNC(=O)[C@@H](N)Cc1ccc(O)cc1)C(=O)N[C@@H](CCCN=C(N)N)C(=O)N1CCC[C@H]1C(=O)N[C@@H](CCCCN)C(N)=O
Ki ratio [11]: kappa/mu/delta

CC[C@H](C)[C@H](NC(=O)[C@H](CCCN=C(N)N)NC(=O)[C@H](CCCN=C(N)N)NC(=O)[C@H]1CNC(=O)C[C@@H](NC(=O)[C@@H](N)Cc2ccc(O)cc2)C(=O)N[C@@H](C)C(=O)N[C@H](Cc2ccccc2)C(=O)N1)C(=O)N[C@@H](CCCN=C(N)N)C(=O)N1CCC[C@H]1C(=O)N[C@@H](CCCCN)C(N)=O
Ki ratio [12]: kappa/mu/delta
